Assays:
[1] = system: SKOV3 tumor; assay: In vivo fluorescence imaging of aHer2-XTEN conjugates (Table 27); set-up: species or system nu/nu mice; settings: single injection
[2] = system: Her2+ tumor; assay: Ex vivo fluorescence imaging of tumors and tissues (Table 28); format: in vivo, nu/nu mice

## Herceptin-AF680
[1]
  time of peak tumor binding post-administration: 8 h
[2]; 72 hour, high dose groups
  total fluorescence signals in tissues (tumor, heart, lungs, spleen, liver, kidneys): greatest signals in most tissues
[2]; Group 7, 3.3 nmol
  fluorescent signal in liver compared to aHer2-XTEN-864 Group 1: approximately double
